Measurements reported in the NIST ThermoML archive (doi:10.1016/j.fluid.2018.09.026).
“And” between values parts separate entries of the source, which are not always exact repeats. Identical values can stand only once.

Conditions: Liquid; for mass density: Vibrating tube method; for viscosity: Vibrating wire viscometry

OCCOCCOCCOCCO [tetraethylene glycol]
Conditions	mass density [kg/m3]	viscosity
283.15 K, 100 kPa	1130.1	–
283.15 K, 630 kPa	1130.3	–
283.15 K, 1170 kPa	1130.2	–
283.15 K, 1640 kPa	1130.8	–
283.15 K, 2110 kPa	1131	–
283.15 K, 3060 kPa	1131.4	–
283.15 K, 5060 kPa	1132.2	–
283.15 K, 7000 kPa	1133.1	–
283.15 K, 9990 kPa	1134.3	–
283.15 K, 14800 kPa	1136.3	–
283.15 K, 19770 kPa	1138.4	–
283.15 K, 24630 kPa	1140.4	–
283.15 K, 29550 kPa	1142.3	–
283.15 K, 34530 kPa	1144.2	–
283.15 K, 39370 kPa	1146.1	–
283.15 K, 44340 kPa	1147.9	–
283.15 K, 49210 kPa	1149.7	–
283.15 K, 54130 kPa	1151.5	–
283.15 K, 59040 kPa	1153.3	–
283.15 K, 63940 kPa	1155	–
283.15 K, 68790 kPa	1156.7	–
293.15 K, 100 kPa	1122	–
293.15 K, 570 kPa	1122.2	–
293.15 K, 1090 kPa	1122.4	–
293.15 K, 1480 kPa	1122.6	–
293.15 K, 2030 kPa	1122.8	–
293.15 K, 3030 kPa	1123.3	–
293.15 K, 5050 kPa	1124.2	–
293.15 K, 7090 kPa	1125.1	–
293.15 K, 9890 kPa	1126.3	–
293.15 K, 14910 kPa	1128.5	–
293.15 K, 19720 kPa	1130.5	–
293.15 K, 24600 kPa	1132.6	–
293.15 K, 29670 kPa	1134.6	–
293.15 K, 34600 kPa	1136.6	–
293.15 K, 39380 kPa	1138.5	–
293.15 K, 44310 kPa	1140.4	–
293.15 K, 49240 kPa	1142.3	–
293.15 K, 54080 kPa	1144.1	–
293.15 K, 58950 kPa	1145.9	–
293.15 K, 63910 kPa	1147.7	–
293.15 K, 68760 kPa	1149.4	–
293.33 K, 140 kPa	–	57.76 mPa·s and 57.29 mPa·s and 57.4 mPa·s
293.33 K, 850 kPa	–	57.59 mPa·s
293.33 K, 870 kPa	–	57.57 mPa·s and 57.86 mPa·s
293.33 K, 1070 kPa	–	58.14 mPa·s
293.33 K, 1080 kPa	–	57.78 mPa·s and 57.85 mPa·s and 57.8 mPa·s
293.33 K, 1090 kPa	–	57.81 mPa·s
293.33 K, 2170 kPa	–	58.64 mPa·s and 59.37 mPa·s
293.33 K, 2180 kPa	–	59.03 mPa·s and 59 mPa·s
293.33 K, 2190 kPa	–	59.03 mPa·s
293.33 K, 9870 kPa	–	63.32 mPa·s
293.33 K, 9880 kPa	–	63.27 mPa·s and 63.47 mPa·s and 63.28 mPa·s
293.33 K, 14950 kPa	–	67.38 mPa·s and 67.34 mPa·s and 67.39 mPa·s
293.33 K, 14960 kPa	–	67.22 mPa·s
293.33 K, 19990 kPa	–	70.54 mPa·s and 70.44 mPa·s
293.33 K, 20000 kPa	–	70.49 mPa·s [middle of 4 runs]
293.33 K, 30180 kPa	–	78.02 mPa·s
293.33 K, 30190 kPa	–	78.07 mPa·s
293.33 K, 30210 kPa	–	78.32 mPa·s
293.33 K, 30230 kPa	–	77.85 mPa·s
293.33 K, 50550 kPa	–	94.79 mPa·s and 94.66 mPa·s
293.33 K, 50560 kPa	–	94.77 mPa·s
293.33 K, 50570 kPa	–	94.4 mPa·s and 94.71 mPa·s
293.33 K, 70170 kPa	–	114.1 mPa·s
293.33 K, 70200 kPa	–	114.1 mPa·s
293.33 K, 70270 kPa	–	114.6 mPa·s
293.33 K, 70300 kPa	–	115.3 mPa·s
293.33 K, 70400 kPa	–	115.1 mPa·s
303.15 K, 100 kPa	1114	–
303.15 K, 630 kPa	1114.2	–
303.15 K, 1200 kPa	1114.5	–
303.15 K, 1610 kPa	1114.7	–
303.15 K, 2120 kPa	1114.9	–
303.15 K, 3090 kPa	1115.4	–
303.15 K, 5080 kPa	1116.3	–
303.15 K, 7050 kPa	1117.2	–
303.15 K, 10000 kPa	1118.5	–
303.15 K, 14920 kPa	1120.8	–
303.15 K, 19740 kPa	1122.9	–
303.15 K, 24580 kPa	1125	–
303.15 K, 29520 kPa	1127.1	–
303.15 K, 34410 kPa	1129.1	–
303.15 K, 39420 kPa	1131.2	–
303.15 K, 44270 kPa	1133.1	–
303.15 K, 49210 kPa	1135.1	–
303.15 K, 54140 kPa	1136.9	–
303.15 K, 59090 kPa	1138.8	–
303.15 K, 63880 kPa	1140.6	–
303.15 K, 68800 kPa	1142.4	–
312.78 K, 150 kPa	–	21.98 mPa·s and 22.09 mPa·s
312.78 K, 700 kPa	–	22.14 mPa·s and 22.13 mPa·s
312.78 K, 1220 kPa	–	22.49 mPa·s and 22.32 mPa·s and 22.44 mPa·s
312.78 K, 1890 kPa	–	22.55 mPa·s and 22.58 mPa·s and 22.52 mPa·s
312.78 K, 1900 kPa	–	22.51 mPa·s and 22.58 mPa·s
312.78 K, 1910 kPa	–	22.46 mPa·s and 22.52 mPa·s
312.78 K, 1930 kPa	–	22.5 mPa·s and 22.54 mPa·s
312.78 K, 1940 kPa	–	22.5 mPa·s and 22.45 mPa·s
312.78 K, 1950 kPa	–	22.63 mPa·s and 22.55 mPa·s
312.78 K, 1960 kPa	–	22.58 mPa·s
312.78 K, 5280 kPa	–	23.19 mPa·s
312.78 K, 5290 kPa	–	23.22 mPa·s and 23.34 mPa·s and 23.31 mPa·s
312.78 K, 7880 kPa	–	23.8 mPa·s
312.78 K, 7890 kPa	–	23.72 mPa·s and 23.79 mPa·s
312.78 K, 7900 kPa	–	23.76 mPa·s
312.78 K, 7910 kPa	–	23.69 mPa·s and 23.77 mPa·s
312.78 K, 7930 kPa	–	23.7 mPa·s and 23.66 mPa·s
312.78 K, 7940 kPa	–	23.75 mPa·s and 23.77 mPa·s
312.78 K, 7950 kPa	–	23.8 mPa·s and 23.81 mPa·s
312.78 K, 10530 kPa	–	24.37 mPa·s
312.78 K, 10540 kPa	–	24.24 mPa·s
312.78 K, 10550 kPa	–	24.32 mPa·s and 24.16 mPa·s
312.78 K, 10570 kPa	–	24.37 mPa·s
312.78 K, 10580 kPa	–	24.19 mPa·s and 24.25 mPa·s
312.78 K, 10590 kPa	–	24.17 mPa·s and 24.18 mPa·s and 24.24 mPa·s
312.78 K, 15150 kPa	–	25.11 mPa·s
312.78 K, 15160 kPa	–	25.22 mPa·s
312.78 K, 15200 kPa	–	25.15 mPa·s
312.78 K, 20090 kPa	–	26.31 mPa·s and 26.47 mPa·s
312.78 K, 20100 kPa	–	26.49 mPa·s
312.78 K, 20110 kPa	–	26.49 mPa·s
312.78 K, 20130 kPa	–	26.5 mPa·s
312.78 K, 20150 kPa	–	26.38 mPa·s
312.78 K, 20240 kPa	–	26.45 mPa·s
312.78 K, 20260 kPa	–	26.54 mPa·s
312.78 K, 20310 kPa	–	26.56 mPa·s
312.78 K, 20320 kPa	–	26.42 mPa·s
312.78 K, 29940 kPa	–	28.24 mPa·s
312.78 K, 29960 kPa	–	28.43 mPa·s
312.78 K, 50160 kPa	–	33.44 mPa·s
312.78 K, 50170 kPa	–	33.56 mPa·s and 33.32 mPa·s and 33.4 mPa·s
312.78 K, 50180 kPa	–	33.43 mPa·s and 33.35 mPa·s
312.78 K, 50190 kPa	–	33.62 mPa·s
312.78 K, 69710 kPa	–	39.17 mPa·s
312.78 K, 69740 kPa	–	38.93 mPa·s
312.78 K, 69750 kPa	–	38.88 mPa·s
312.78 K, 69790 kPa	–	38.97 mPa·s
312.78 K, 69810 kPa	–	39.04 mPa·s
312.78 K, 69840 kPa	–	39.01 mPa·s
312.78 K, 69860 kPa	–	39.09 mPa·s
312.78 K, 69890 kPa	–	38.83 mPa·s
312.78 K, 69910 kPa	–	39.02 mPa·s
312.78 K, 69930 kPa	–	38.99 mPa·s
312.78 K, 69990 kPa	–	39 mPa·s
312.78 K, 70060 kPa	–	38.98 mPa·s
312.78 K, 70130 kPa	–	39.14 mPa·s
313.15 K, 100 kPa	1106	–
313.15 K, 570 kPa	1106.3	–
313.15 K, 1110 kPa	1106.5	–
313.15 K, 1570 kPa	1106.7	–
313.15 K, 2100 kPa	1107	–
313.15 K, 3080 kPa	1107.5	–
313.15 K, 5070 kPa	1108.4	–
313.15 K, 7000 kPa	1109.4	–
313.15 K, 9960 kPa	1110.7	–
313.15 K, 14830 kPa	1113	–
313.15 K, 19730 kPa	1115.2	–
313.15 K, 24720 kPa	1117.5	–
313.15 K, 29640 kPa	1119.6	–
313.15 K, 34400 kPa	1121.8	–
313.15 K, 39380 kPa	1123.8	–
313.15 K, 44210 kPa	1125.9	–
313.15 K, 49240 kPa	1127.8	–
313.15 K, 54040 kPa	1129.8	–
313.15 K, 59030 kPa	1131.7	–
313.15 K, 63920 kPa	1133.6	–
313.15 K, 68770 kPa	1135.4	–
323.15 K, 100 kPa	1098	–
323.15 K, 590 kPa	1098.3	–
323.15 K, 1180 kPa	1098.5	–
